A selection: hits, their analogues and other compounds. The true share with any hit is near 2.3%.
Nrf2 inh: Nrf2 pathway inhibition; 2.1% of 360,000 active; AID 504444; A549 ARE-Fluc reporter, luciferase luminescence, 18-24 h; Potency, µM (doses to about 46 µM), for the others: top-dose activity change, negative = inhibition, most hits filed as inhibitors; note: potency is the fitted concentration of half-maximal effect; % is set by controls: 0 for no effect and ±100 for the full control effect; nearly all actives have a fitted effect of over 60% in size
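Nrf2 activity is the BugLite luminescence, read 15 min after reagent at room temperature, following CellTiter-Fluor cytotoxicity readout (30 min, 37C). Compound titrations were applied for 18-24 h to 5000 A549 ARE_Fluc cells/well in 5% FBS OPTI-MEM.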
Mito fusion act: blocks mitochondrial division or promotes mitochondrial fusion | 0.23% of 320,000 active | Potency, µM (series often up to 46.1 µM), without a hit: at the highest dose growth rescue (activation), usual class: activators | AID 485298 | S. cerevisiae fusion-defective mutant growth rescue, CellTiterGlo 48 h; note: potency is the fitted concentration of half-maximal effect; % of control where 0% means no effect; nearly all actives have a fitted effect of over 45% in size
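Temperature-sensitive fusion-defective S. cerevisiae (e.g. fzo1-1, mgm1-5) were grown with compound in YPEG medium (3% ethanol, 3% glycerol) for 48 hours at 37C. Growth rescue was measured as viability by CellTiterGlo luminescence after 10 minutes at ambient.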
A549 tox-1: kills or reduces viability of A549 cells in Nrf2 counter-screen; A549 ARE-Fluc cells, CellTiter-Fluor viability, 18-24 h; AID 504648; 0.16% of 390,000 active; Potency, µM (top dose mostly 46 µM), inactives show top-dose activity change, negative = cytotoxicity, hits mostly inhibitors; note: potency is the fitted concentration of half-maximal effect; % is set by controls: 0 for no effect and ±100 for the full control effect
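A549 ARE-Fluc cells in 5% FBS OPTI-MEM, 5000 cells/well, rested 2 h then exposed to compounds in concentration-response for 18-24 h at 37 °C. Viability by CellTiter-Fluor fluorescence (Ex 405/Em 525) after 30 min; luciferase luminescence (BugLite, 15 min, RT) read afterwards.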
Nrf2 ARE act: Nrf2 pathway activation; 0.31% of 410,000 active; AREc32 ARE-luciferase reporter (MCF7-derived line), luminescence, 24 h; AID 624171; Potency, µM (top dose mostly 46.1 µM), for inactives: at the top dose activation, actives largely listed as activators; note: potency is the fitted concentration of half-maximal effect; % of control where 0% means no effect; nearly all actives have a fitted effect of over 65% in size
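Nrf2 activation is followed as ARE-luciferase induction in the AREc32 line after one day of compound treatment; luminescence is read with Steady-Glo.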
miR-21 reporter: miR-21 reporter, rising signal; HeLa miR-21 FLuc reporter, luciferase, 48 h; Potency, µM (titrated, usually from 38.3 µM), without a hit: top-dose reporter change, positive = more light; AID 2288; 340,000 tested, under 10 active; active = well fitted rising curve with a large enough effect; inconclusive = small, poorly fitted or top-dose-only effect; inactive = no such curve, though single readings can be large or run the other way;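 further: % of control where 0% means no effect; miR-21 action dims this reporter so a rising signal means less miR-21 action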
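HeLa miR-21-FLuc reporter line, endogenous miR-21; 2000 cells/well in DMEM/10% FBS; compound titration up to ~40uM final, 48 h, 37 degree Celsius; luciferase detection reagent, 15 min lysis, CCD luminescence.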
FLuc counter 3: firefly luciferase inhibition, Nrf2 hit validation; shares compounds with Nrf2 inh; purified firefly luciferase, luminescence inhibition; Potency, µM (highest dose often 57.5 µM), for the others: at the top dose activity change, negative = inhibition, hits mostly inhibitors; 4% of 1,400 active; AID 720522; note: potency is the fitted concentration of half-maximal effect; % is set by controls: 0 for no effect and ±100 for the full control effect; nearly all actives have a fitted effect of over 65% in size
A549 tox-2: A549 cytotoxicity, Nrf2 inhibitor counterscreen; shares compounds with Nrf2 inh; Potency, µM (doses to about 46.1 µM), without a hit: top-dose activity change, negative = cytotoxicity, actives largely listed as inhibitors; A549 ARE-Fluc cells, cytotoxicity counterscreen; 2% of 1,400 active;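 note: potency is the fitted concentration of half-maximal effect; cells exposed to compounds for 18 to 24 hours; % is set by controls: 0 for no effect and ±100 for the full control effect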
ARE-Fluc inh: reduces Nrf2 ARE reporter signal in A549 cells. Potency, µM (doses to about 46.1 µM), for the others: at the top dose activity change, negative = inhibition, hits mostly inhibitors. A549 ARE-firefly luciferase reporter, luminescence. 74% of 1,400 active. AID 720524. shares compounds with Nrf2 inh; note: potency is the fitted concentration of half-maximal effect; % is set by controls: 0 for no effect and ±100 for the full control effect; nearly all actives have a fitted effect of over 65% in size
The depositor's hits bear a star; ? = inconclusive; / = no result given. Unless noted, calls come from the whole dose curve; as a rule, active = well fitted curve in the direction sought with a large enough effect; inconclusive = small, poorly fitted or top-dose-only effect, or another doubt; inactive = no such curve, though single readings can be large; an effect the other way counts as inactive or inconclusive.

SMILES	Nrf2 inh	Mito fusion act	A549 tox-1	Nrf2 ARE act	miR-21 reporter	FLuc counter 3	A549 tox-2	ARE-Fluc inh
COC[C@H]1OC(=O)c2coc3c2[C@@]1(C)C1=C(C3=O)C2CCC(=O)[C@@]2(C)C[C@H]1OC(C)=O (stereo not given in full)	/	-50%	/	/	/	/	/	/
COc1cccc(NC(=O)CCc2nc(-c3ccc(C(C)(C)C)cc3)no2)c1	0.26µM*	/	-3%	-4%	?	2.4µM*	-5%	0.92µM*
COc1ccc(NC(=O)CCc2nc(C3=CCN(Cc4cccc(C)c4)CC3)no2)c(OC)c1	/	/	5%	0%	16%	/	/	/
COc1ccc(CCNc2nc3ccc(Cl)cc3n3cnnc23)cc1OC	?	/	0%	1%	-2%	/	/	/
NC(N)=NOCCC(N)C(=O)O (stereo not given)	/	-31%	/	/	/	/	/	/
C=C(C)[C@@]12OC3(c4ccccc4)O[C@@H]1C1[C@@H]4O[C@]4(CO)[C@@H](O)[C@]4(O)C(=O)C(C)=C[C@H]4[C@@]1(O3)[C@H](C)[C@H]2OC(=O)/C=C/C=C/c1ccccc1 (stereo not given in full)	0.0052µM*	/	-26%	-2%	/	-1%	?	0.018µM*
Cc1cc(C)c(OCC(=O)N2CCN(c3ncc(C(F)(F)F)cc3Cl)CC2)c(C)c1	?	-8%	-5%	-1%	-4%	/	/	/
COc1ccccc1N=c1scc(-c2ccc(S(=O)(=O)N3CCCC3)cc2)n1C	3.7µM*	/	-17%	-1%	?	1%	-26%	6.5µM*
O=C(OCC(=O)N1CCCCC1)c1cc(S(=O)(=O)N2CCOCC2)c(Cl)cc1Cl	?	/	-1%	0%	/	/	/	/
CC1=CC(O)C(O)C2(C)C1CC1OC(=O)CC3C(C)C(O)C(=O)C2C13CO (stereo not given)	2.1µM*	/	?	-2%	/	3%	-29%	/
O=C(NN1C(=O)C2C3C=CC([C@H]4CC34)[C@@H]2C1=O)c1ccc(Br)cc1 (stereo not given in full)	-13%	-1%	-2%	0%	0%	/	/	/
Cc1cc(-c2ccc(C)c(S(=O)(=O)N3CCOc4ccc(Cl)cc43)c2)on1	?	/	3%	4%	?	/	/	/
CCCCCCn1c(=O)c(C(=O)Nc2cnccn2)c(O)c2ccccc21	4.1µM*	-9%	?	0%	-1%	-1%	?	5.2µM*
CCCCCn1c(=O)c(C(=O)Nc2ccccn2)c(O)c2ccccc21	?	-2%	-6%	4%	0%	/	/	/
CC1=CC(O)C(O)C2(C)C1CC1OC(=O)C(O)C3C(C)C(O)C4(O)OCC13C42 (stereo not given)	2.9µM*	/	-20%	0%	/	-2%	-24%	5.2µM*
Cc1sc(NC(=O)Cn2c(=O)oc3ccccc32)nc1-c1ccc(Cl)cc1	?	27%	-1%	0%	-10%	/	/	/
CC(=O)[C@H]1CCC2C3CC[C@H]4C[C@@H](O)CC[C@]4(C)C3CC[C@@]21C (stereo not given in full)	11%	/	11%	0%	/	/	/	/
CC(=O)OC1CC(OC2C(O)CC(OC3C(O)CC(OC4CCC5(C)C(CCC6C5CCC5(C)C(C7=CC(=O)OC7)C(O)CC65O)C4)OC3C)OC2C)OC(C)C1OC1OC(CO)C(O)C(O)C1O (stereo not given)	0.33µM*	/	?	-3%	/	4%	?	0.29µM*
CC(=O)OC1CC2(O)C3CCC4CC(O)CCC4(C)C3CCC2(C)C1C1=CC(=O)OC1 (stereo not given)	0.065µM*	/	?	-2%	/	2%	?	0.058µM*

Another view of part of the listing above:
Each structure is followed by: Nrf2 inh, Mito fusion act, A549 tox-1, Nrf2 ARE act, miR-21 reporter, FLuc counter 3, A549 tox-2, ARE-Fluc inh
> COc1ccc(NC(=O)CCc2nc(C3=CCN(Cc4cccc(C)c4)CC3)no2)c(OC)c1
  /, /, 5%, 0%, 16%, /, /, /
> COc1ccc(CCNc2nc3ccc(Cl)cc3n3cnnc23)cc1OC
  ?, /, 0%, 1%, -2%, /, /, /
> O=C(NN1C(=O)C2C3C=CC([C@H]4CC34)[C@@H]2C1=O)c1ccc(Br)cc1 (stereo not given in full)
  -13%, -1%, -2%, 0%, 0%, /, /, /

Bioassay records as filed in PubChem.
